Assay results: patent US8906868B2, “Aminoglycoside derivatives” (Rempex Pharmaceuticals, Inc., priority 2010, dated 2014)
Where two headings read alike, the source gives them in different places.

Test system: rats
Settings: rat, in vivo, sc

Gentamicin C1a [reference compound]
Histopathology Results After 7 days of Dosing (30 mg/kg/day): No Change
Histopathology Results After 14 days of Dosing (30 mg/kg/day): Minimal Nephrosis
Histopathology Results After 7 days of Dosing (100 mg/kg/day): No Change
Histopathology Results After 14 days of Dosing (100 mg/kg/day): Mild to Moderate Nephrosis
Histopathology Results After 7 days of Dosing (300 mg/kg/day): Severe Nephrosis
